This note sets out measurements from ChEMBL document CHEMBL1121916, “Structure-activity relationships in dihydropteroate synthase inhibition by sulfanilamides. Comparison with the antibacterial activity” (J Med Chem, 1981).

Structures are written as SMILES.

The data set can be described thus: PKa value was measured. It counts as physicochemical.

For `Nc1ccc(S(=O)(=O)Nc2ncccn2)cc1` [SULFADIAZINE], the pKa (commonly the negative logarithm of the acid dissociation constant) is 6.37.
